Earlier results, collected in patent US10195284B2, “Compositions and methods for controlled localized delivery of bone forming therapeutic agents” (University of Rochester, priority 2013, dated 2019).

Details: rats; cited from earlier work

## Maraviroc
  half-life: 54 min
